Test results reported in ChEMBL document CHEMBL4382260, “Synthesis and biological evaluation as antiangiogenic agents of ureas derived from 3'-aminocombretastatin A-4” (Eur J Med Chem, 2019).

How the values were obtained:
[1] = test system: A549; test: Cell cycle arrest in human A549 cells assessed as accumulation at G0/G1 phase at 54 uM after 24 hrs by propidium iodide staining based flow cytometry (reference value: 60 +/- 1%); format: functional
[2] = test system: A549; test: Cell cycle arrest in human A549 cells assessed as accumulation at G2/M phase at 54 uM after 24 hrs by propidium iodide staining based flow cytometry (reference value: 10 +/- 0.8%); format: functional

CNC(=O)c1cc(Oc2ccc(NC(=O)Nc3ccc(Cl)c(C(F)(F)F)c3)cc2)ccn1 [SORAFENIB]
Activity [1]: 46.8%
Activity [2]: 19.4%
